Experimental data from patent US6831091B2, “Salt forms of 3-(4-bromo-2,6-difluoro-benzyloxy)-5-[3-(4-pyrrolidin-1-yl-butyl)-ureido]-isothiazole-4-carboxylic acid amide and method of production” (priority 2000, dated 2004).

Conditions: compared with free base or hydrochloride form

For “3-(4-bromo-2,6-difluoro-benzyloxy)-5-[3-(4-pyrrolidin-1-yl-butyl)-ureido]-isothiazole-4-carboxylic acid amide hemi-citrate [Example 4]”, the “kinetic solubility relative to free base or hydrochloride” value was “greater kinetic solubility than the free base or hydrochloride form”.
